For this assay, the target named is A2.1/K^b on EA2 target cells (UniProt P01901+P04439, D140Y/D185E/D98H/E176V/G131W/I119V/I121R/I166T/N151K/N90K/Q86G/Q94H/R138H/R169H). Kind of assay: Binding inhibition assay: competition with influenza A-specific peptide, read out as lysis by influenza A-specific CTL Clone 12. Details: species or system chimeric human-mouse. As to conditions: 10 μg test peptide, 0.1 μg influenza A-specific peptide; E:T 0.3:1; 6 hours; low lysis = binding.

The chains behind the UniProt entries cited, without tags or fusion partners. Where a name states a change or a piece, a line headed by the entry shows the natural chain unless it says otherwise.
UniProt P01901: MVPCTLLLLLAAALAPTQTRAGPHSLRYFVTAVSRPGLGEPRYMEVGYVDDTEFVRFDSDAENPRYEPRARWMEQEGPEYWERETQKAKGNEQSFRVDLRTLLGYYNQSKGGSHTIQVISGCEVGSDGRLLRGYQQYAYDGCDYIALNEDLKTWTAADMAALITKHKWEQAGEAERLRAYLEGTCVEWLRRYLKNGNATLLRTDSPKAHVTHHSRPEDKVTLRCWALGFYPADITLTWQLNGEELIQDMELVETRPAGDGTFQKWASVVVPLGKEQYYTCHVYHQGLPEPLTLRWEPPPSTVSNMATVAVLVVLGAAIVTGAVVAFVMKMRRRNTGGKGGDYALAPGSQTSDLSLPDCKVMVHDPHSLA
UniProt P04439: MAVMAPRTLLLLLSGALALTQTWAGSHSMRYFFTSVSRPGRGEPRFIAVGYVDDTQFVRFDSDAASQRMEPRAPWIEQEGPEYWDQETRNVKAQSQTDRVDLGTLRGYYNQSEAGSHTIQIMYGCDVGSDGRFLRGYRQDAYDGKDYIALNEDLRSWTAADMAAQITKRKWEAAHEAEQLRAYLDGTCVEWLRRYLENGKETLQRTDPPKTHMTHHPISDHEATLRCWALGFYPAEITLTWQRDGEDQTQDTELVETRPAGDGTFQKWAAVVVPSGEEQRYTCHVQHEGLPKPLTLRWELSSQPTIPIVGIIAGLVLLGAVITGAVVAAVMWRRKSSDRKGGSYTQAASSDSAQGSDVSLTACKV

As for ASNENMETM, the “binding to A2.1/K^b (percent specific lysis of EA2/K^b targets, FIG. 1), in words” value is “highest percent specific lysis”.

In the case of RGYVYQGL, the “binding to A2.1/K^b (percent specific lysis of EA2/K^b targets, FIG. 1), in words” value was “highest percent specific lysis”.

The record behind these values is US20030022820A1, “IN VIVO ACTIVATION OF TUMOR-SPECIFIC CYTOTOXIC T CELLS” (priority 1995, published 2003).
